System: histamine
Assay: Plasma histamine after peanut challenge (enzyme immunoassay)
Parameters: species or system C57BL/6 mice
Conditions: mouse, in vivo

SMILES: CC(c1cc2ccccc2s1)N(O)C(N)=O (stereo not shown) [Zileuton]
- levels of histamine in plasma, untreated vs. treated mice: comparable levels
